Experimental data: US8349318B2, “Use of specifically engineered enzymes to enhance the efficacy of prodrugs” (The Board of Trustees of the University of Illinois, priority 2008, dated 2013)

Test system: SKBR-3
Assay: MTS cytotoxicity assay in breast cancer-derived cell line
Format: cell-based, human
Details: SKBR-3, 96 hours
Experimental: The cells were then exposed to varying amount of BVdU for 96 hours. The ability of the antibody-mutant dCK to phosphorylate BVdU was reflected by the reduced levels of cell viability compared with untreated control cells. Cell viability was measured using the MTS cytotoxicity assay according to the manufacturer's instructions (Promega). In short, the tetrazolium compound (3-(4,5-dimethylthiazol-2-yl)-5-(3-carboxymethoxyphenyl)-2-(4-sulfophenyl)-2H-tetrazolium, inner salt; MTS) was added to the cells. MTS was reduced by cellular dehydrogenase into formazan, which is soluble in tissue culture medium. Measuring formazan absorbance at a wavelength of 492 nm reflected levels of dehydrogenase enzyme activity found in metabolically-active cells. Since the production of formazan is proportional to the number of living cells, the intensity of the produced color is a good indication of the viability of the cells.

Substance: HERCEPTIN®: antibody immunologically-specific for the Her2/neu (erbB2) receptor
- effect on cell viability / proliferation: no effect
